## Measured properties of organic chemicals

Data: OPERA 2.9 data sets, kmansouri/OPERA on GitHub.

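OPERA's authors assembled the values from existing databases and did not measure them anew. A listed value is a point estimate from one report or more. Conditions of the individual experiments are not part of the data. The measured form (salt, isomer or mixture) is not always the one drawn. Some upstream entries may be estimates or bounds without being marked so.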

The melting point is given in degrees Celsius.
The boiling point refers to atmospheric pressure (760 mmHg), by the definition of the set.
logP is the log10 of the octanol-water partition coefficient; higher is more lipophilic.
Solubility in water is on a log10 molar scale (set defined at 25 °C).
Vapor pressures (log10 mmHg) refer to near room temperature, 15 to 30 °C; higher is more volatile.
Henry's law constant (air-water partitioning) is log10 of atm·m3/mol, nominally at 25 °C.
The unbound fraction in human plasma runs from 0 (all bound) to 1 (all free).
Intrinsic clearance (human, µL/min per 10^6 hepatocytes): higher is faster turnover, and 0 stands for none detected.
Cells with "–" have no entry in this list.

MP (°C) | bp (°C) | logP (octanol/water) | log solubility (log10 mol/L) | log VP (log10 mmHg) | log Henry constant (log10 atm·m3/mol) | plasma fu | hepatic Clint (µL/min/10^6 cells) | SMILES | name
-11.2 | 293 | 3.17 | -2.198 | -2.745 | – | – | – | C=CCCCCCCCC(=O)N(C)C | 9-Decenamide, N,N-dimethyl-
– | 264.5 | – | – | -4.377 | – | – | – | CCOC(=O)C[C@H](NCCC[Si](OC)(OC)OC)C(=O)OCC | Diethyl N-[3-(trimethoxysilyl)propyl]-L-aspartate
– | – | 3.48 | -3.448 | – | – | – | – | CCCCCCCC1CCCC(=O)O1 (centres undefined) | delta-Dodecalactone
– | – | – | -5.259 | -9.319 | – | – | – | COc1ccc(C(OC[C@H]2O[C@@H](n3cc(C)c(=O)[nH]c3=O)C[C@@H]2O)(c2ccccc2)c2ccc(OC)cc2)cc1 | Thymidine, 5'-O-[bis(4-methoxyphenyl)phenylmethyl]-
– | – | 0.21 | – | -2.745 | – | – | – | CC(C)(O)CCC(C)(C)O | 2,5-Dimethylhexane-2,5-diol
90.74 | – | 2.26 | -3.076 | -5.084 | – | – | – | COC(=O)c1ccc(C#N)cc1[N+](=O)[O-] | Methyl 4-cyano-2-nitrobenzoate
177.4 | – | 1.2 | -3.603 | – | – | – | – | CCCCCCCCCCCCCCCC[N+](C)(C)CC(=O)OCC.[Cl-] | –
– | – | 2.4 | -4.199 | – | – | – | – | CCC(=O)NCC[C@@H]1CCc2ccc3c(c21)CCO3 | Ramelteon
– | – | 3.3 | – | – | – | 0.1 | – | C=C(CC)C(=O)c1ccc(OCC(=O)O)c(Cl)c1Cl | Ethacrynic acid
– | – | – | – | – | – | 0.1384 | 0 | c1ccc2[nH]c(-c3cscn3)nc2c1 | Thiabendazole
263.4 | – | 5.5 | -7.54 | – | – | – | – | CCN(CC)c1ccc2cc3c(oc2c1)c(C#N)c(=N)n1c2ccccc2nc31 | –
206.2 | – | -0.902 | – | – | – | – | – | CC(C)C(NC(N)=O)NC(N)=O | Isobutylidene diurea
– | – | – | -4.09 | -3.084 | – | – | – | O=CCC/C=C1\CC2CC1C1CCCC21 (stereo partly drawn) | 4-(Octahydro-5H-4,7-methanoinden-5-ylidene)butanal
– | – | 1.4 | -2.778 | – | – | – | – | Nc1cc(Cl)c(NC2=NCCN2)c(Cl)c1 | –
– | – | -0.56 | -2.01 | – | – | – | – | N[C@@H](Cc1ccc(O)c(I)c1)C(=O)O | 3-Iodo-L-tyrosine
178.2 | – | – | – | -5.598 | – | – | – | O=C([C@H]1CC[C@H](C(=O)N(CCO)CCO)CC1)N(CCO)CCO | –
69 | – | – | -8.31 | – | – | – | – | Clc1cc(Cl)c(Oc2ccc(Cl)c(Cl)c2Cl)cc1Cl | 2,2',3,4,4',5'-Hexachlorodiphenylether
6.9 | – | 4.65 | -4.126 | -0.862 | – | – | – | COC1(OC)CCCCCCCCCCC1 | 1,1-Dimethoxycyclododecane
150 | – | – | -4.057 | – | – | – | – | C[N+](C)(CCCNS(=O)(=O)CCC(F)(F)C(F)(F)C(F)(F)C(F)(F)C(F)(F)C(F)(F)F)CC(=O)[O-] | 6:2 Fluorotelomer sulfonamide betaine
– | – | – | -2.83 | -7.889 | – | – | – | COc1cc(C=CC(=O)O)cc(OC)c1OC | 2-Propenoic acid, 3-(3,4,5-trimethoxyphenyl)-
– | – | – | – | – | – | 0.7057 | 2.718 | ClCCl | Dichloromethane
– | – | – | -5.32 | -10 | – | – | – | Cc1ccc2c(=O)c3cccc(CC(=O)O)c3oc2c1C | 5,6-Dimethylxanthenone-4-acetic acid
– | – | 3.073 | -2.953 | -2.682 | – | – | – | C=C(C)C(=O)OCCOc1ccccc1 | Ethylene glycol phenyl ether methacrylate
– | – | – | -4.821 | – | – | 0.1 | – | O=C(O)c1ccccc1Nc1cccc(C(F)(F)F)c1 | Flufenamic acid
-109 | – | – | – | -0.03 | – | – | – | CC(=O)CCO | 2-Butanone, 4-hydroxy-
216.1 | – | 3.64 | – | – | – | – | – | O=C(c1ccc(Oc2ccccc2)cc1)c1ccc(C(=O)c2ccc(Oc3ccccc3)cc2)cc1 | Methanone, 1,4-phenylenebis[(4-phenoxyphenyl)-
– | – | 1.35 | -3.274 | – | – | – | – | O=c1[nH]c2ccc([N+](=O)[O-])cc2[nH]1 | 2H-Benzimidazol-2-one, 1,3-dihydro-5-nitro-
72.6 | – | – | -7.421 | -6.435 | -3.113 | – | – | CCCCCCCC/C=C\CCCCCCCCCCCC(=O)NCCCCCCCCCCCCCCCCCC | 13-Docosenamide, N-octadecyl-, (13Z)-
– | – | 2.8 | -2.124 | -2.333 | – | – | – | CC(C)CC(C)(O)C#CC(C)(O)CC(C)C (centres undefined) | 2,4,7,9-Tetramethyl-5-decyne-4,7-diol
– | 121.2 | 1.8 | -5.956 | 1.137 | – | – | – | O=S(=O)(F)C(F)(F)C(F)(F)OC(F)(Cl)C(F)(F)Cl (centres undefined) | 4,5-Dichloroperfluoro-3-oxapentanesulfonyl fluoride

The last 4 entries again:

| SMILES | name | MP (°C) | bp (°C) | logP (octanol/water) | log solubility (log10 mol/L) | log VP (log10 mmHg) | log Henry constant (log10 atm·m3/mol) | plasma fu | hepatic Clint (µL/min/10^6 cells) |
|---|---|---|---|---|---|---|---|---|---|
| O=c1[nH]c2ccc([N+](=O)[O-])cc2[nH]1 | 2H-Benzimidazol-2-one, 1,3-dihydro-5-nitro- | – | – | 1.35 | -3.274 | – | – | – | – |
| CCCCCCCC/C=C\CCCCCCCCCCCC(=O)NCCCCCCCCCCCCCCCCCC | 13-Docosenamide, N-octadecyl-, (13Z)- | 72.6 | – | – | -7.421 | -6.435 | -3.113 | – | – |
| CC(C)CC(C)(O)C#CC(C)(O)CC(C)C (centres undefined) | 2,4,7,9-Tetramethyl-5-decyne-4,7-diol | – | – | 2.8 | -2.124 | -2.333 | – | – | – |
| O=S(=O)(F)C(F)(F)C(F)(F)OC(F)(Cl)C(F)(F)Cl (centres undefined) | 4,5-Dichloroperfluoro-3-oxapentanesulfonyl fluoride | – | 121.2 | 1.8 | -5.956 | 1.137 | – | – | – |